ChEMBL document CHEMBL6096734, “Design, Synthesis and Anti-Inflammatory Evaluation of 3-Substituted 5-Amidobenzoate Derivatives as Novel P2Y14 Receptor Antagonists via Structure-Guided Molecular Hybridization” (J Med Chem, 2025)

What was measured:
Type in all cases: functional, cell-based
RAW264.7 [1] = assay: Anti-inflammatory activity in LPS-induced ALI in mouse RAW264.7 cells assessed as decrease in IL-6 secretion level by ELISA method
RAW264.7 [2] = assay: Anti-inflammatory activity in LPS-induced ALI in mouse RAW264.7 cells assessed as decrease in TNF-alpha secretion level by ELISA method
RAW264.7 [3] = assay: Anti-inflammatory activity in LPS-induced ALI in mouse RAW264.7 cells assessed as decrease in Il-1 beta secretion level by ELISA method

Measured: Activity

O=C(O)c1cc(-c2ccc(C3CCNCC3)cc2)c2ccc(-c3ccc(C(F)(F)F)cc3)cc2c1 [PPTN]
active: all assays above

The source made the active and inactive calls.
